Measurements published in patent US9248109B2, “High penetration prodrug compositions of peptides and peptide-related compounds” (priority 2009, dated 2016).

Key:
[1] = In vitro penetration rate across isolated human skin in modified Franz cells (HPLC); settings: for In vitro Penetration Rate (apparent flux), Parent compound / In vitro Penetration Rate (apparent flux), HPP/HPC: 20% in 0.2 M phosphate buffer pH 7.4, isolated human skin; for In vitro Penetration Rate (apparent flux), Parent compound: parent compound column, lowest detectable flux 1 μg/cm^2/h; for apparent flux value: parent drugs, at lowest detectable value, considered not detectable; for In vitro Penetration Rate (apparent flux), HPP/HPC: 2 mL, Franz cells, HPP/HPC column
[2] = Conversion of HPPs/HPCs to parent drugs: incubation with whole blood, hydrolysis products by HPLC; type: in vitro ADME, human; settings: 20 mg in 1 mL whole blood, 30 min, 37° C.
Experimental: Peptide HPPs/HPCs converted to the parent peptides or peptide-related compounds quickly in good yield in human plasma.
A peptide HPP/HPC (20 mg) was incubated with whole blood (1 mL) for 30 min at 37° C. and analyzed by HPLC.

Row | Substance | In vitro Penetration Rate (apparent flux), Parent compound [1] [mg/cm^2/h] | Hydrolysis products: Amount of Parent drug [2] [%] | Hydrolysis products: Amount of Peptide HPP/HPC [2] [%] | Hydrolysis products: Amount of other side products (amino acids, dipeptides, tripeptides, tetrapeptides) [2] [%] | In vitro Penetration Rate (apparent flux), HPP/HPC [1] [mg/cm^2/h] | also measured
1 | cyclo(1,6)-Ac-Nle-Asp-His-D-Phe(4-I)-Arg-Trp-Lys-NH2 | 0.001 | – | – | – | – | –
2 | H-Val-Pro-Gly-Pro-Arg-OH | 0.001 | – | – | – | – | apparent flux value [1]: 1 μg/cm^2/h
3 | Ac-Tyr-Gly-Gly-Phe-Met-OH | 0.001 | – | – | – | – | –
4 | Ac-Tyr(Ac)-Gly-Gly-Phe-Met-OCH2CH2N(CH2CH3)2.HCl | – | 60 | 3 | 27 | 0.52 | Hydrolysis products: Amount of Ac-Tyr-Gly-Gly-Phe-Met-OCH2CH2N(CH2CH3)2•HCl [2]: 2%; Hydrolysis products: Amount of Ac-Tyr-Gly-Gly-Phe-Met-OH [2]: 8%
5 | cyclo(1,6)-H-Nle-Asp-His-D-Phe(4-I)-Arg(Ac)-Trp-Lys-NH2.HCl | – | – | – | – | 0.34 | –
6 | cyclo(1,6)-Ac-Nle-Asp-His-Phe-Arg-Trp-Lys-OH | 0.001 | – | – | – | – | apparent flux value [1]: 1 μg/cm^2/h
7 | Ac-Val-Pro-Gly-Pro-Arg(diAc)-OCH2CH2N(CH2CH3)2.HCl | – | – | – | – | 0.60 | –
8 | HCl.(CH3)2NCH2CH2CH2CO-Tyr(Ac)-Gly-Gly-Phe-Met-OCH2CH2CH2CH3 | – | 55 | 5 | 24 | 0.55 | Hydrolysis products: Amount of (CH3)2NCH2CH2CH2CO-Tyr-Gly-Gly-Phe-Met-OCH2CH2CH2CH3 [2]: 6%; Hydrolysis products: Amount of (CH3)2NCH2CH2CH2CO-Tyr-Gly-Gly-Phe-Met-OH [2]: 10%
9 | cyclo(1,6)-H-Nle-Asp-His-D-Ala(2-naphthyl)-Arg(NO2)-Trp-Lys-NH2.HCl | – | – | – | – | 0.50 | –
10 | cyclo(1,6)-Ac-Nle-Asp-His-Phe-Arg(diAc)-Trp-Lys-OCH2CH2N(CH2CH3)2.HCl | – | 45 | 4 | 33 | 0.46 | Hydrolysis products: Amount of cyclo(1,6)-Ac-Nle-Asp-His-Phe-Arg(Ac)-Trp-Lys-OCH2CH2N(CH2CH3)2•HCl [2]: 8%; Hydrolysis products: Amount of cyclo(1,6)-Nle-Asp-His-Phe-Arg-Trp-Lys-OH [2]: 10%
